Assay [1] deals with T1, glucoamylase G2 form from Aspergillus niger (Aspergillus niger, UniProt P69328).
T1 construct: purchased Novo Nordisk, Bagsvaerd, Denmark
Briefly: Inhibition of glucoamylase G2-catalyzed hydrolysis of maltose. The class given is biochemical. Particulars: read-out: Ki GA (Glucoamylase). As to the method:
The glucoamylase G2 form from Aspergillus niger was purified from a commercial enzyme (Novo Nordisk, Bagsvaerd, Denmark) as described.^19,20 The initial rates of glucoamylase G2-catalyzed hydrolysis of maltose was tested with 1 mM maltose as substrate in 0.1 M sodium acetate pH 4.5 at 45° C. using an enzyme concentration of 7.0×10^−8 M and five inhibitor concentrations in the range 1 μm-5 mM. The effect of the inhibition on rates of substrate hydrolysis were compared for the different compounds.

The chains behind the UniProt entries cited, without tags or fusion partners. A line that says so, or that is headed by a name, gives the form on record, which may keep a tag or linker. Residues count along the entry.
UniProt P69328, other isoform, or with tags, fused parts or gaps: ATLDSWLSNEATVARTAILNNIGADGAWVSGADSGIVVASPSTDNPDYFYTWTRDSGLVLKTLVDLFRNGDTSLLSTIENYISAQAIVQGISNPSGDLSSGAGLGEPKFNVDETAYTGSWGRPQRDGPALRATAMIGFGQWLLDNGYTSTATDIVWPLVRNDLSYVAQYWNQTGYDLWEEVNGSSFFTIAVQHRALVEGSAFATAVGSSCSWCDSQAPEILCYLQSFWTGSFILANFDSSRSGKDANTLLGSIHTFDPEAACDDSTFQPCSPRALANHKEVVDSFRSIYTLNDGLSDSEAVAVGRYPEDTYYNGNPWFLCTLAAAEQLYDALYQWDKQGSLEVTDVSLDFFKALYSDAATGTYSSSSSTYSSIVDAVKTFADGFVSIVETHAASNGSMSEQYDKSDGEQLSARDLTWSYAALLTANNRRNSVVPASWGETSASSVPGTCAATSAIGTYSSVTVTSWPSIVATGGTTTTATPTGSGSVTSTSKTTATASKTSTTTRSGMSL
UniProt O43451, 87-954 limits assumed: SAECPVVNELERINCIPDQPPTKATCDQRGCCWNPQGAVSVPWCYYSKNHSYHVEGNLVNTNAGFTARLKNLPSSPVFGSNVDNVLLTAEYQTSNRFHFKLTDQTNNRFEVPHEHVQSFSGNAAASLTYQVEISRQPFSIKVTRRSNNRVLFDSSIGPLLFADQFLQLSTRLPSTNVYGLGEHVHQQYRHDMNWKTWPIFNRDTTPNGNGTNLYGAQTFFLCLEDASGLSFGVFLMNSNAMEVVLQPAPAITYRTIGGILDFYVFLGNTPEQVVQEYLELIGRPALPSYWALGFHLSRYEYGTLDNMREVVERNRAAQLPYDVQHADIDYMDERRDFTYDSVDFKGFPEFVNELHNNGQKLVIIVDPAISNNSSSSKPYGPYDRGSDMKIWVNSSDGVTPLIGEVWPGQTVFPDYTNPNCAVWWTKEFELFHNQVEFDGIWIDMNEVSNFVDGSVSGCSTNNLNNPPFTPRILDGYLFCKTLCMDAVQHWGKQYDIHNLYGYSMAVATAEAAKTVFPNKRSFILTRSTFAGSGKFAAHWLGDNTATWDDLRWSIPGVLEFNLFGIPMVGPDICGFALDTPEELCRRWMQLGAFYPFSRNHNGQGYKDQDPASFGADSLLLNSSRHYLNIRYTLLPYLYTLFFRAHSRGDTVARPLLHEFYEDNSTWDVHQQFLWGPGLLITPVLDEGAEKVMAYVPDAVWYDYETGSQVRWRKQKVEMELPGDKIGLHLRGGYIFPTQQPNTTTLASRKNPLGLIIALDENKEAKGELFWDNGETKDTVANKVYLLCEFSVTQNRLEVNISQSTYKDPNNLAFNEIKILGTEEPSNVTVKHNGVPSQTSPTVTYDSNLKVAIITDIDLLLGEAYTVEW

Assay [2] addresses Maltase Glucoamylase (MGA) (Homo sapiens, UniProt O43451). Nature of the assay: Inhibition of recombinant human maltase glucoamylase (MGA), maltose substrate, glucose oxidase readout. The class given is biochemical. Particulars: for Ki: maltose substrate, 100 mM MES buffer pH 6.5, 37° C., read-out: Ki value against recombinant human maltase glucoamylase (MGA). As to the method:
Enzyme Activity Assay. Analysis of MGA inhibition was performed using maltose as the substrate, and measuring the release of glucose. Reactions were carried out in 100 mM MES buffer pH 6.5 at 37° C. for 15 min. The reaction was stopped by boiling for 3 min. 20 μL aliquots were taken and added to […] of glucose oxidase assay reagent (Sigma) in a 96-well plate. Reactions were developed for 1 hour and absorbance was measured at 450 nm to determine the amount of glucose produced by MGA activity in the reaction. One unit of activity is defined as the hydrolysis of one […] of maltose per minute. All reactions were performed in triplicate and absorbance measurements were averaged to give a final result.
The program GraFit 4.0.14 was used to fit the data to the Michaelis-Menten equation and estimate the kinetic parameters, Km and Vmax, of the enzyme. Ki values for each inhibitor were determined by measuring the rate of maltose hydrolysis by MGA at varying inhibitor concentrations. Data were plotted in Lineweaver-Burk plots (1/rate vs. 1/[substrate]) and Ki values were determined by the equation Ki=Km[I]/(Vmax)m−Km, where “m” is the slope of the line. The Ki reported for each inhibitor was estimated by averaging the Ki values obtained from each of the different inhibitor concentrations.

Usually Ki stands for a measure of affinity in units of concentration, obtained from inhibition or displacement. Regarding `O=S(=O)([O-])O[C@@H](CO)[C@H](O)C[Se@+]1C[C@@H](O)[C@H](O)[C@H]1CO`, in assay [1], the inhibition constant (Ki) came to 720000 nM.

`O=S(=O)([O-])O[C@@H]([C@H](O)[C@H](O)CO)[C@H](O)C[Se@@+]1C[C@@H](O)[C@H](O)[C@H]1CO` (racemic) [Compound 232]: in assay [2], the inhibition constant (Ki) stood at 2400 ± 700 nM.

Consider `O=S(=O)([O-])OC(C(O)C[Se+]1CC(O)C(O)C1CO)C(O)C(O)CO` (single isomer, unassigned) [Compound 191], for which the Ki in assay [2] stood at 41000 nM.

In the case of `O=S(=O)([O-])OC(C(O)C[Se+]1CC(O)C(O)C1CO)C(O)C(O)CO` (single isomer, unassigned) [Compound 221], the Ki in assay [2] was 940 ± 60 nM.

One may read the IC50 as the point on the concentration scale where inhibition reaches its midpoint. Consider `O=S(=O)([O-])OC(C(O)C[Se+]1CC(O)C(O)C1CO)C(O)C(O)CO` (single isomer, unassigned) [Compound 250], for which the IC50 in assay [2] (read-out: IC50 value against recombinant human MGA) was determined as 1000 nM.

These data come from patent US8389565B2, “Glycosidase inhibitors and methods of synthesizing same” (Simon Fraser University, priority 2000, dated 2013).
